Reference: patent US20250145606A1 (Arcus Biosciences, Inc., priority 2023, published 2025)

By UniProt entry, the sequences of proteins in these tests, tags left out. Where a name states a change or a piece, a line headed by the entry shows the natural chain unless it says otherwise.
UniProt P10721: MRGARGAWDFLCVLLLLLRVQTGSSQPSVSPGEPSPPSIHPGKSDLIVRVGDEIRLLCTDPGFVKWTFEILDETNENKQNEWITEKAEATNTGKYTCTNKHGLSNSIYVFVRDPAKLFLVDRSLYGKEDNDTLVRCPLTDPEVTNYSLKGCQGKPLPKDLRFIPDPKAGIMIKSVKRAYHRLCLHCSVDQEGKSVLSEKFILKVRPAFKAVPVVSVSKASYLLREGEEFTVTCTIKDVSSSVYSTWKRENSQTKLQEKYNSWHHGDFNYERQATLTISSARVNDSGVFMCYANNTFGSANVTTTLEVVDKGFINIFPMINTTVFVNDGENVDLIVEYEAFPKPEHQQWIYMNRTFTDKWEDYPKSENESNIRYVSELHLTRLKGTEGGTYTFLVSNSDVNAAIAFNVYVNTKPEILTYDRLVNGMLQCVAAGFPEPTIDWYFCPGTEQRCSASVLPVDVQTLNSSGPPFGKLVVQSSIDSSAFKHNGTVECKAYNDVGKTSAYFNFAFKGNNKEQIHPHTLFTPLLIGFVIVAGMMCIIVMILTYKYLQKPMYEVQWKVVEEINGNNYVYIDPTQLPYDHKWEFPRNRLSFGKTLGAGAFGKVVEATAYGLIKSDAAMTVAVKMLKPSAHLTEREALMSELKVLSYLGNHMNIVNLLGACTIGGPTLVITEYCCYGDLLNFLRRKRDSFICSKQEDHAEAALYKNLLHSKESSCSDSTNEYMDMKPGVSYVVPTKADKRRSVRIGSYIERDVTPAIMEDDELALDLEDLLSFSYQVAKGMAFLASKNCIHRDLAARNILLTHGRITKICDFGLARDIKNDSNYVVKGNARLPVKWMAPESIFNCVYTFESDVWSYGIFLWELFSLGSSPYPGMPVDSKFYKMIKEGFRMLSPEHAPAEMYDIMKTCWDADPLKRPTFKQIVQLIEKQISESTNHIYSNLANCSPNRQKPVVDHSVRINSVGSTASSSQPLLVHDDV
UniProt P16234: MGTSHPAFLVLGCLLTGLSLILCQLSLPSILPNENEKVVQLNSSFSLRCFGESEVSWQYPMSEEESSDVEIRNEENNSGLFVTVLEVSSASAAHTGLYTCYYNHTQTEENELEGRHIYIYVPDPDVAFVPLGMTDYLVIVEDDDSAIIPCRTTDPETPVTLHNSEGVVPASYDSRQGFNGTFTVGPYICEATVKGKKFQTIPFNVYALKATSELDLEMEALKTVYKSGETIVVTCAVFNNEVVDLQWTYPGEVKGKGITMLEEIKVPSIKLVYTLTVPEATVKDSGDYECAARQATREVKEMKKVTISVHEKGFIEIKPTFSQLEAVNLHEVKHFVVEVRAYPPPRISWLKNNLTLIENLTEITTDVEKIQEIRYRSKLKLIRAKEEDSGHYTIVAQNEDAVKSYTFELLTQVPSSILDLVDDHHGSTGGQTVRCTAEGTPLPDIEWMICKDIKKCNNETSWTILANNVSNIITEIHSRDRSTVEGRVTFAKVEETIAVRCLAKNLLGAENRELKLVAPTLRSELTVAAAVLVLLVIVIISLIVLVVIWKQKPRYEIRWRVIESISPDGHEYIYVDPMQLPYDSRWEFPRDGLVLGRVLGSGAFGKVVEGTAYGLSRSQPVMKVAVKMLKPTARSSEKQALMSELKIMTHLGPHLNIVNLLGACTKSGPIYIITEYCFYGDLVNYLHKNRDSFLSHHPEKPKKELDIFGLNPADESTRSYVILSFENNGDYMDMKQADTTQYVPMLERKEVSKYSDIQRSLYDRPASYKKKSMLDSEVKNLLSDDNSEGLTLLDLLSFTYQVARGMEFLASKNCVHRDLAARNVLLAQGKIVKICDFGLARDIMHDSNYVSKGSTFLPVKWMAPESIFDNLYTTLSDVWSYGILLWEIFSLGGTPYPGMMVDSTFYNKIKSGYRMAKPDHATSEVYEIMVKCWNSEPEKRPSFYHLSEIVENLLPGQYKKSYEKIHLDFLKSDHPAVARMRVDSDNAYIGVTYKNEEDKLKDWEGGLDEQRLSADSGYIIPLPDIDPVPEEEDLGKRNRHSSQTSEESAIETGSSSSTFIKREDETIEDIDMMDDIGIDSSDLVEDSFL
UniProt P36888: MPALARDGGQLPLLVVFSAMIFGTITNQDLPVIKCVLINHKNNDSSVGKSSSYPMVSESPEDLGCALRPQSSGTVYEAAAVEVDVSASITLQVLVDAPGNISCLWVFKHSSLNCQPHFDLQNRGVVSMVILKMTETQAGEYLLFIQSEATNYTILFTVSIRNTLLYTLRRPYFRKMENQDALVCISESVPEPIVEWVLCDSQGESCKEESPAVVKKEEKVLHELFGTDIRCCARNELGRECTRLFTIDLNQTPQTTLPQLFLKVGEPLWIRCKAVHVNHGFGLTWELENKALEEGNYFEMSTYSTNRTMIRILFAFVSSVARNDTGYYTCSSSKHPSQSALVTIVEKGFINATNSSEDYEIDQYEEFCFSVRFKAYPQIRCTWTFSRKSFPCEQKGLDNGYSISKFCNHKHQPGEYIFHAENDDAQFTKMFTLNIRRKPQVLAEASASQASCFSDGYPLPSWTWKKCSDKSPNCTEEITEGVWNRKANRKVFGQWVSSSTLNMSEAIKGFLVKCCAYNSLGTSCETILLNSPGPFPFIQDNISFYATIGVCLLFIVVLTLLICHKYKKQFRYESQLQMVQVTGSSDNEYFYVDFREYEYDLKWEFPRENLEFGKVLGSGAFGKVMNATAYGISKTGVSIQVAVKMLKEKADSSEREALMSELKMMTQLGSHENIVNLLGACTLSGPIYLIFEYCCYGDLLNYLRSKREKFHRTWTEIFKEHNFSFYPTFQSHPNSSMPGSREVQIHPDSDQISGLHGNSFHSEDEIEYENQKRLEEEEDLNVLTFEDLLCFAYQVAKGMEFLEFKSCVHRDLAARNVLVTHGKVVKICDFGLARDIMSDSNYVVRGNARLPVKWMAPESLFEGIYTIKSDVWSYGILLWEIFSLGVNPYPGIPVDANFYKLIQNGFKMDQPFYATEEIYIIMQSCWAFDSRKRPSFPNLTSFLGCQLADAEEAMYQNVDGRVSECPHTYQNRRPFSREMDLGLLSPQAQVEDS

Assays:
[1] = molecular target: c-Kit (Homo sapiens (Human), UniProt P10721); test: Inhibition of c-Kit kinase activity (HTRF KinEASE-TK); conditions: read-out: KIT IC50, biochemical
Procedure: (§1) Inhibition of c-Kit, PDGFRα, PDGFRβ, CSFIR and FLT3 Kinase Activity
(§2) Compounds were evaluated to determine the potency with which they inhibit the kinase activity of the following panel of tyrosine kinases: c-Kit (SignalChem, Product #: K06-11BG), PDGFRα (SignalChem, Product #: P12-18G), PDGFRβ (SignalChem, Product #: P13-11G), CSFIR (SignalChem, Product #: C74-11G) and FLT3 (Invitrogen, Product #: PR4666C). Activity was determined as a function of phosphorylated biotinylated TK peptide generated by the transfer of phosphate from ATP as measured by the use of the HTRF KinEASE-TK assay kit (Cisbio, Product #: 62TKOPEJ). Levels of phosphorylated biotinylated TK peptide (Part 61TKOBLC of KinEASE assay kit) are quantified by its capture by phosphor-TK-Antibody-Cryptate (Part of KinEASE assay kit) and XL665-labeled Streptavidin (Part 610SAXLG of KinEASE assay kit) followed by measurement of Time-Resolved Fluorescence Resonance Energy Transfer (TR-FRET) signal. […] The TR-FRET signal was quantified by measuring the ratio of emission at 665 nm to 620 nm after excitation at 320 nm by reading on a PerkinElmer Envision multimode reader. Compound potencies (IC50 values) were determined using a standard 4-parameter non-linear regression fit.

[2] = molecular target: PDGFRα (Homo sapiens (Human), UniProt P16234); test: Inhibition of PDGFRα kinase activity (HTRF KinEASE-TK); conditions: read-out: PDGFRα IC50, biochemical
Procedure: as §1, §2

[3] = molecular target: FLT3 (Homo sapiens (Human), UniProt P36888); test: Inhibition of FLT3 kinase activity (HTRF KinEASE-TK); conditions: read-out: FLT3 IC50, biochemical
Procedure: as §1, §2

[4] = system: Phospho-KIT (Y703) in M07e cells; test: Phospho-KIT (Y703) cellular assay in M07e cells; format: cell-based; conditions: read-out: M07e Cell IC50
Procedure: Phospho-KIT (Y703) Cellular Assay in M07e Cells
The day prior to assay, M07e cells (DSMZ, catalog #ACC 104) were serum starved. Cells were centrifuged and cell pellet resuspended in OptiMEM (Gibco, catalog #31985062) to a density of 1×10^6-2.5×10^6 cells per mL. Cells were then incubated overnight at 5% CO2 and 37° C. in an appropriately sized flask. On the day of the experiment, an 11 point, half log titration of test compound was pre-dispensed into 96-well round bottom polypropylene plates (Corning, catalog #3365). The serum starved M07e cells were centrifuged and resuspended to a cell density of 1×10^6 cells per mL with DPBS (Gibco, catalog #14190-144). Live/Dead Green Fixable viability dye (Invitrogen, catalog #L34970) was added as 1 μL/1 mL of cell suspension. Cells were then incubated in the dark at 4° C. for 30 min. Cells were washed by centrifugation and resuspension with DPBS+0.5% BSA (Gemini Bio Products, catalog #700110/100, 30% BSA solution). […] Samples were then read by flow cytometry. […] The geometric mean of AF647 of the live cell population was recorded. Percentage maximum activity in each test well was calculated based on DMSO (100% activity) and positive control treated cell wells (0% activity). The potencies (IC50 values) of test compounds were determined using a standard 4-parameter non-linear regression fit.

## N-[5-[(5-cyclopropyloxypyridin-2-yl)carbamoyl]-4-fluoro-2-methylphenyl]-2-[[(3R)-oxolane-3-carbonyl]amino]-1,3-thiazole-5-carboxamide
[1]
  IC50: < 100 nM
[2]
  IC50: > 1000 nM
[3]
  IC50: > 1000 nM
[4]
  IC50: < 100 nM
